Source: US7687482B2, “Bisphosphonate compounds and methods” (The Board of Trustees of the University of Illinois, priority 2006, dated 2010)

Amino acid sequences for entries named in this document (tags omitted).
UniProt Q57WF1, entry or part of it: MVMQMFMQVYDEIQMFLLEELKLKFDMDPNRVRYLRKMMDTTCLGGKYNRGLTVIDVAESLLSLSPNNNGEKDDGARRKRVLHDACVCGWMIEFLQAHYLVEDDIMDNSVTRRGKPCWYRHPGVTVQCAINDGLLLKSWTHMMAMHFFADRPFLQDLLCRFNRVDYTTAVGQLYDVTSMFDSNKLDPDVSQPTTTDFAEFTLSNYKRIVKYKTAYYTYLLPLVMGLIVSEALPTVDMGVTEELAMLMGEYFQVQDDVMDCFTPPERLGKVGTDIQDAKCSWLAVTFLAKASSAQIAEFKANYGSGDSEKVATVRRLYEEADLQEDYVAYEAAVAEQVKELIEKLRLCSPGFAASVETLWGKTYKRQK

Key:
D. discoideum = D. discoideum growth inhibition; format: cell-based; settings: Dictyostelium discoideum, read-out: D. discoideum IC50
T. brucei FPPS = T. brucei FPPS (Trypanosoma brucei, UniProt Q57WF1); assay: biochemical

## O=P(O)(O)C(O)(Cc1cccnc1)P(=O)(O)O [3 (risedronate), risedronate, reference compound]
D. discoideum
  IC50: 2.8 µM
T. brucei FPPS
  IC50: 0.1 µM
